Columns and labels:
[1] = Weight loss test (volatility) of transparent plastisole PVC film at 100° C.; type: physicochemical
Description: Their plasticising behaviour is compared in a plastisole based transparent PVC film.
(flooring type, top layer): Solvin 382NG 100 phr (obtainable from Solvay S.A., Belgium), plasticiser 50 phr, Ca/Zn stabiliser (Baerostab NT 306) 2.5 phr (obtainable from the company Baerlocher).
The transparent film so formed is subjected to amongst others a weight loss test (volatility) at 100° C. for respectively 4 and 7 days. The plasticiser efficiency is determined by means of a hardness measurement. A measure for the compatibility of the plasticiser is the transparency.

[2] = Volatility of pure plasticiser by thermal-gravimetrical analysis; type: physicochemical; conditions: 200° C./10 min, pure compound
[3] = plastisol, 50 phr plasticizer; for Extractions by H2O (Weight Difference %) 1 d: after 1 day; for Extractions by H2O (Weight Difference %) 7 d: after 7 days; for Extractions by H2O (Weight Difference %) dry: after drying the sample
[4] = dry blend compound, not shown in Table 3
[5] = transparent PVC film, 50 phr plasticiser, 4 days

Row | Volatile: Weight difference @ 100° C. After 4 days (%) [1, 5] [%] | Volatile: Weight difference @ 100° C. After 7 days (%) ([1]; transparent PVC film, 50 phr plasticiser, 7 days) | delta vs. ref. (weight difference after 4 days) ([1]; versus DINP, 4 days) | delta vs. ref. (weight difference after 7 days) ([1]; versus DINP, 7 days) | Volatily plasticizer (weightloss [m %]) [2] [m %] | Extractions by H2O (Weight Difference %) 1 d [3] [%] | Extractions by H2O (Weight Difference %) 7 d [3] [%] | Extractions by H2O (Weight Difference %) dry [3] [%] | Molecule | extraction of the pure plasticisers by means of water [4]
1 | −17.40 | – | – | – | – | – | – | – | CC(C)CCCCCCOC(=O)CCC(=O)OCCCCCCC(C)C [DINS, diisononylsuccinate] | –
2 | −10.80 | −17.40 | ×4.7 | ×4.35 | −12.9 | 1 | 1.8 | 0.2 | Benzyl-(2-propylheptyl) succinate [BPHS] | very good and better than the reference DINP, DOTP and DOA
3 | – | – | – | – | −15.1 | 0.8 | 1.5 | 0.1 | Benzyl-isononyl succinate [BINS] | very good and better than the reference DINP, DOTP and DOA

From patent US9359487B2, “Plasticizers based on mixed esters of succinate” (Proviron Holding N.V., priority 2012, dated 2016)
